Source: patent US8497240B2 (priority 2006, dated 2013)

Legend:
[1] = type: in vivo, NIH/Swiss mice
[2] = type: in vivo, NIH/Swiss mice; conditions: AUC240
[3] = target: T1, human GIP receptor (Homo sapiens, UniProt P48546); assay: biochemical; type: binding
T1 construct: expressed in transfected cells; host or cells: HEK293 (HEK-GIPR), membranes
T1 sequence (P48546 22-466): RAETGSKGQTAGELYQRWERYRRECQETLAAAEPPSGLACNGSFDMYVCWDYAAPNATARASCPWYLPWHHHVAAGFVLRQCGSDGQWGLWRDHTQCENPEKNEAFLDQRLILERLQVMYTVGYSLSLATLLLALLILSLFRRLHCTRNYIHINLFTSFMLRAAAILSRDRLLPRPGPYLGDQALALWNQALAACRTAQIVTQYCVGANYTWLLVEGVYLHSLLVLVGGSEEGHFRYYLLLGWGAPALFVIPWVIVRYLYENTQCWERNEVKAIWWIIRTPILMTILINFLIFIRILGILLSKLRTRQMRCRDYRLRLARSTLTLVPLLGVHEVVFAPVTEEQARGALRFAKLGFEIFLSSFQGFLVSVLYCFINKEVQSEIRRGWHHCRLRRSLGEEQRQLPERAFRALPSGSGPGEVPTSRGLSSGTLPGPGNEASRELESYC

SMILES | OGTT/GL (%) ([1]; 30 nmol/kg) | Basal Gluc. Low. 80 nmol/Kg [2] | inhibition at 0.01 µM ([3]; read-out: (% Inh 10 nm, GIP-LF Assay)) [%] | inhibition at 0.01 µM ([3]; read-out: GIP RBA (% Inh 10 nM)) [%] | OGTT/GL (%) ([1]; 350 nmol/kg)
CC[C@H](C)[C@H](NC(=O)[C@H](CO)NC(=O)[C@H](Cc1ccc(O)cc1)NC(=O)[C@H](CC(=O)O)NC(=O)[C@H](CO)NC(=O)[C@@H](NC(=O)[C@H](Cc1ccccc1)NC(=O)[C@@H](NC(=O)CNC(=O)[C@H](CCC(=O)O)NC(=O)[C@@H](C)NC(=O)[C@H](Cc1ccc(O)cc1)NC(=O)[C@@H](N)CC(C)C)[C@@H](C)O)[C@@H](C)CC)C(=O)N[C@@H](C)C(=O)N[C@@H](CCSC)C(=O)N[C@@H](CC(=O)O)C(=O)N[C@@H](CCCCN)C(=O)N[C@H](C(=O)N[C@@H](Cc1c[nH]cn1)C(=O)N[C@@H](CCC(N)=O)C(=O)N[C@@H](CCC(N)=O)C(=O)N[C@@H](CC(=O)O)C(=O)N[C@@H](Cc1ccccc1)C(=O)N[C@H](C(=O)N[C@@H](CC(N)=O)C(=O)N[C@@H](Cc1c[nH]c2ccccc12)C(=O)N[C@@H](CC(C)C)C(=O)N[C@@H](CC(C)C)C(=O)N[C@@H](C)C(=O)N[C@@H](CCC(N)=O)C(=O)N[C@@H](CCCCN)C(=O)N1CCC[C@H]1C(=O)N[C@@H](CCCCN)C(=O)N[C@@H](CCCCN)C(=O)N[C@H](C(=O)N[C@@H](CCCNC(=N)N)C(=O)N[C@@H](Cc1ccc(O)cc1)C(=O)N[C@@H](CO)C(N)=O)[C@@H](C)CC)C(C)C)[C@@H](C)CC [0601GIP4798] | −27, % and −27, 30% | −8%, | – | – | –
CC[C@H](C)[C@H](N)C(=O)N[C@@H](Cc1ccc(O)cc1)C(=O)N[C@H](C)C(=O)N[C@@H](CCC(=O)O)C(=O)NCC(=O)N[C@H](C(=O)N[C@@H](Cc1ccccc1)C(=O)N[C@H](C(=O)N[C@@H](CO)C(=O)N[C@@H](CC(=O)O)C(=O)N[C@@H](Cc1ccc(O)cc1)C(=O)N[C@@H](CO)C(=O)N[C@H](C(=O)N[C@@H](C)C(=O)N[C@@H](CCSC)C(=O)N[C@@H](CC(=O)O)C(=O)N[C@@H](CCCCN)C(=O)N[C@H](C(=O)N[C@@H](Cc1c[nH]cn1)C(=O)N[C@@H](CCC(N)=O)C(=O)N[C@@H](CCC(N)=O)C(=O)N[C@@H](CC(=O)O)C(=O)N[C@@H](Cc1ccccc1)C(=O)N[C@H](C(=O)N[C@@H](CC(N)=O)C(=O)N[C@@H](Cc1c[nH]c2ccccc12)C(=O)N[C@@H](CC(C)C)C(=O)N[C@@H](CC(C)C)C(=O)N[C@@H](C)C(=O)N[C@@H](CCC(N)=O)C(=O)N[C@@H](CCCCN)C(=O)N1CCC[C@H]1C(=O)N[C@@H](CCCCN)C(=O)N[C@@H](CCCCN)C(=O)N[C@H](C(=O)N[C@@H](CCCNC(=N)N)C(=O)N[C@@H](Cc1ccc(O)cc1)C(=O)N[C@@H](CO)C(N)=O)[C@@H](C)CC)C(C)C)[C@@H](C)CC)[C@@H](C)CC)[C@@H](C)CC)[C@@H](C)O [0601GIP4801] | −23, % and −23, 30% | −1%, | 88.8 | 88.8 | –
CC[C@H](C)[C@H](NC(=O)[C@H](CCCCN)NC(=O)[C@H](CC(=O)O)NC(=O)[C@H](CC(C)C)NC(=O)[C@H](C)NC(=O)[C@@H](NC(=O)[C@H](CO)NC(=O)[C@H](Cc1ccc(O)cc1)NC(=O)[C@H](CC(=O)O)NC(=O)[C@H](CO)NC(=O)[C@@H](NC(=O)[C@H](Cc1ccccc1)NC(=O)[C@@H](NC(=O)CNC(=O)[C@H](CCC(=O)O)NC(=O)[C@@H](C)NC(=O)[C@@H](N)Cc1ccc(O)cc1)[C@@H](C)O)[C@@H](C)CC)[C@@H](C)CC)C(=O)N[C@@H](C)C(=O)N[C@@H](CCC(N)=O)C(=O)N[C@@H](CCC(N)=O)C(=O)N[C@@H](CCC(=O)O)C(=O)N[C@@H](Cc1ccccc1)C(=O)N[C@H](C(=O)N[C@@H](CC(N)=O)C(=O)N[C@@H](Cc1c[nH]c2ccccc12)C(=O)N[C@@H](CC(C)C)C(=O)N[C@@H](CC(C)C)C(=O)N[C@@H](C)C(=O)N[C@@H](CCC(N)=O)C(=O)N[C@@H](CCCNC(=N)N)C(=O)N1CCC[C@H]1C(=O)N[C@@H](CO)C(=O)N[C@@H](CO)C(=O)NCC(=O)N[C@@H](C)C(=O)N1CCC[C@H]1C(=O)N1CCC[C@H]1C(=O)N1CCC[C@H]1C(=O)N[C@@H](CO)C(N)=O)C(C)C [Compound 0601GIP4263] | – | – | – | – | −17
CC[C@H](C)[C@H](NC(=O)[C@H](CO)NC(=O)[C@H](Cc1ccc(O)cc1)NC(=O)[C@H](CC(=O)O)NC(=O)[C@H](CO)NC(=O)[C@@H](NC(=O)[C@H](Cc1ccccc1)NC(=O)[C@@H](NC(=O)CNC(=O)[C@H](CCC(=O)O)NC(=O)[C@@H](C)NC(=O)[C@@H](N)Cc1ccc(O)cc1)[C@@H](C)O)[C@@H](C)CC)C(=O)N[C@@H](C)C(=O)N[C@@H](CC(C)C)C(=O)N[C@@H](CC(=O)O)C(=O)N[C@@H](CCCCN)C(=O)N[C@H](C(=O)N[C@@H](CCCNC(=N)N)C(=O)N[C@@H](CCC(N)=O)C(=O)N[C@@H](CCC(N)=O)C(=O)N[C@@H](CCC(=O)O)C(=O)N[C@@H](Cc1ccccc1)C(=O)N[C@H](C(=O)N[C@@H](CC(N)=O)C(=O)N[C@@H](Cc1c[nH]c2ccccc12)C(=O)N[C@@H](CC(C)C)C(=O)N[C@@H](CC(C)C)C(=O)N[C@@H](C)C(=O)N[C@@H](CCC(N)=O)C(=O)N[C@@H](CCCNC(=N)N)C(=O)N1CCC[C@H]1C(=O)N[C@@H](CO)C(=O)N[C@@H](CO)C(=O)NCC(=O)N[C@@H](C)C(=O)N1CCC[C@H]1C(=O)N1CCC[C@H]1C(=O)N1CCC[C@H]1C(=O)N[C@@H](CO)C(N)=O)C(C)C)[C@@H](C)CC [Compound 0601GIP4278] | – | – | – | – | −12
CC[C@H](C)[C@H](NC(=O)[C@H](CO)NC(=O)[C@H](Cc1ccc(O)cc1)NC(=O)[C@H](CC(=O)O)NC(=O)[C@H](CO)NC(=O)[C@@H](NC(=O)[C@H](Cc1ccccc1)NC(=O)[C@@H](NC(=O)CNC(=O)[C@H](CCC(=O)O)NC(=O)[C@@H](C)NC(=O)[C@@H](N)Cc1ccc(O)cc1)[C@@H](C)O)[C@@H](C)CC)C(=O)N[C@@H](C)C(=O)N[C@@H](CC(C)C)C(=O)N[C@@H](CC(=O)O)C(=O)N[C@@H](CCCCN)C(=O)N[C@H](C(=O)N[C@@H](CCCNC(=N)N)C(=O)N[C@@H](CCC(N)=O)C(=O)N[C@@H](CCC(N)=O)C(=O)N[C@@H](CCC(=O)O)C(=O)N[C@@H](Cc1ccccc1)C(=O)N[C@H](C(=O)N[C@@H](CC(N)=O)C(=O)N[C@@H](Cc1c[nH]c2ccccc12)C(=O)N[C@@H](CC(C)C)C(=O)N[C@@H](CC(C)C)C(=O)N[C@@H](C)C(=O)N[C@@H](CCC(N)=O)C(=O)N[C@@H](CCCCN)C(=O)NCCC(=O)N1CCC[C@H]1C(=O)N[C@@H](CO)C(=O)N[C@@H](CO)C(=O)NCC(=O)N[C@@H](C)C(=O)N1CCC[C@H]1C(=O)N1CCC[C@H]1C(=O)N1CCC[C@H]1C(=O)N[C@@H](CO)C(N)=O)C(C)C)[C@@H](C)CC [Compound 0601GIP4290] | – | – | – | – | −17

Several values for one entry are separate records, joined by “and”; a condition that tells them apart may be missing. Equal values may be shown once. Read-outs that look alike come from different tables or passages of the source.
